Assay results as given in patent US20250388669A1 (published 2025).

Target: T1, B7H3 (UniProt Q5ZPR3 29-466, limits assumed)
T1 sequence (looked up): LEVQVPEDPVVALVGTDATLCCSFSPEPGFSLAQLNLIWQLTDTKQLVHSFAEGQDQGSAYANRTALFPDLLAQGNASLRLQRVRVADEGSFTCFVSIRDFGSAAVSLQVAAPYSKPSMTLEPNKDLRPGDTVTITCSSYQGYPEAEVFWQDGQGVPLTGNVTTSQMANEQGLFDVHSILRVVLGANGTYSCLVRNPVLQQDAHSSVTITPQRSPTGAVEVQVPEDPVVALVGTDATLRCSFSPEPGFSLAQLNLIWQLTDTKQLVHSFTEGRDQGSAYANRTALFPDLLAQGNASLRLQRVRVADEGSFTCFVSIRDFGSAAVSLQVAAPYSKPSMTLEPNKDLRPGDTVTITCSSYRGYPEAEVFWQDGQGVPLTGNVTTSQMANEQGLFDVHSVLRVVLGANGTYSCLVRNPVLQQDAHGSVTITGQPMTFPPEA
Assay: FCM or ELISA (graded summary table)

B1: Ly2128 (other)
chain 1: QVQLVQSGAEVKKPGASVKVSCKASGYTFTSYVMHWVRQKPGQGLEWIGYINPYNEGTESTDKFKGRATMTSDKSTSTVYMELSSLRSEDTAVYYCASIYYGYEGTYFGVWGQGTLVTVSSASTKGPSVFPLAPSSKSTSGGTAALGCLVKDYFPEPVTVSWNSGALTSGVHTFPAVLQSSGLYSLSSVVTVPSSSLGTQTYICNVNHKPSNTKVDKKVEPKSCGGGGSGGGGSGGGGSGGGGSEVQLVESGGGLVQPGGSLRLSCAASGFTFSTYAMNWVRQAPGKGLEWVGRIRSKYNNYATYYADSVKGRFTISRDDSKNSLYLQMNSLKTEDTAVYYCVRHGNFGNSYVSWFAYWGQGTLVTVSSGGGGSDKTHTCPPCPAPEAAGPSVFLFPPKPKDTLMISRTPEVTCVVVDVSHEDPEVKFNWYVDGVEVHNAKTKPREEQYNSTYRVVSVLTVLHQDWLNGKEYKCKVSNKALPAPIEKTISKAKGQPREPQVYTLPPSREEMTKNQVSLWCLVKGFYPSDIAVEWESNGQPENNYKTTPPVLDSDGSFFLYSKLTVDKSRWQQGNVFSCSVMHEALHNHYTQKSLSLSPGGGGGSGGGGSGGGGSGGGGSQVQLVQSGAEVKKPGASVKVSCKASGYTFTSYYIHWVRQAPGQGLEWIGCIYPGNVNTNYNEKFKDRATLTVDTSISTAYMELSRLRSDDTAVYFCTRSHYGLDWNFDVWGQGTTVTVSS
chain 2: QVQLVQSGAEVKKPGASVKVSCKASGYTFTSYVMHWVRQKPGQGLEWIGYINPYNEGTESTDKFKGRATMTSDKSTSTVYMELSSLRSEDTAVYYCASIYYGYEGTYFGVWGQGTLVTVSSASTKGPSVFPLAPSSKSTSGGTAALGCLVKDYFPEPVTVSWNSGALTSGVHTFPAVLQSSGLYSLSSVVTVPSSSLGTQTYICNVNHKPSNTKVDKKVEPKSCGGGGSGGGGSGGGGSGGGGSQAVVTQEPSLTVSPGGTVTLTCRSSTGAVTTSNYANWVQQKPGQAPRGLIGGTNKRAPWTPARFSGSLLGGKAALTITGAQAEDEADYYCALWYSNLWVFGGGTKLTVLGGGGSDKTHTCPPCPAPEAAGPSVFLFPPKPKDTLMISRTPEVTCVVVDVSHEDPEVKFNWYVDGVEVHNAKTKPREEQYNSTYRVVSVLTVLHQDWLNGKEYKCKVSNKALPAPIEKTISKAKGQPREPQVYTLPPSREEMTKNQVSLSCAVKGFYPSDIAVEWESNGQPENNYKTTPPVLDSDGSFFLVSKLTVDKSRWQQGNVFSCSVMHEALHNRFTQKSLSLSPGGGGGSGGGGSGGGGSGGGGSDIQMTQSPSSLSASVGDRVTITCHASQNIYVWLNWYQQKPGKAPKLLIYKASNLHTGVPSRFSGSGSGTDFTLTISSLQPEDFATYYCQQGQTYPYTFGGGTKVEIK
light: EIVLTQSPATLSLSPGERATLSCRASSSVSYMHWYQQKPGQAPRPWIYATSNLASGIPARFSGSRSGTDYTLTISSLEPEDFAVYYCQQWSSNTLTFGGGTKVEIKRTVAAPSVFIFPPSDEQLKSGTASVVCLLNNFYPREAKVQWKVDNALQSGNSQESVTEQDSKDSTYSLSSTLTLSKADYEKHKVYACEVTHQGLSSPVTKSFNRGEC
notes: Tri-specific antibody B7H3 (two Fabs) / CD3 (central Fv) / CD28 (terminal Fv)
B1: binds.
